## OPERA 2.9 data: properties

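The numbers are reported measurements, compiled and curated for the OPERA QSAR suite. One number stands for a compound and property, with no spread given. Method and conditions are not stated for these values. Where a salt, mixture or single isomer is drawn, the source does not say that exactly this form was tested. Unmarked limits or estimates from the upstream databases cannot be ruled out.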

The melting point is given in degrees Celsius.
The boiling point refers to atmospheric pressure (760 mmHg), by the definition of the set.
logP is the log10 of the octanol-water partition coefficient; higher is more lipophilic.
Solubility in water is on a log10 molar scale (set defined at 25 °C).
Vapor pressure is log10 of mmHg; the set covers 15 to 30 °C, mostly 20 to 25 °C.
The Henry's law constant is on a log10 scale in atm·m3/mol (set defined at 25 °C); higher favours air over water.
Intrinsic clearance (human, µL/min per 10^6 hepatocytes): higher is faster turnover, and 0 stands for none detected.
"–" marks a cell with nothing listed here.

* Cc1ccc(NC(=O)Nc2ccc(Cc3ccc(NC(=O)Nc4ccc(C)cc4)cc3)cc2)cc1: MP 288 °C; log Kow 3.8; log S -7.713 (log10 mol/L)
* CN1[C@@H]2CCC[C@H]1C[C@@H](NC(=O)c1nn(C)c3ccccc13)C2: MP 219 °C; log Kow 2.6; log S -2.857 (log10 mol/L); hepatic Clint 7.009 µL/min/10^6 cells
* CCn1c(O)c(/N=N/c2ccc(/N=N/c3cc(OCCO)c(/N=N/c4c(S(=O)(=O)[O-])cc5cc(S(=O)(=O)[O-])cc(O)c5c4O)cc3OCCO)c(S(=O)(=O)[O-])c2)c(C)c(C(N)=O)c1=O.[K+].[K+].[Na+]: MP 270 °C; log Kow -3.3
* CCCC(=O)C1=C(O)CC(C2CCCSC2)CC1=O (centres undefined): MP 65.55 °C; log Kow 4.1; log S -4.501 (log10 mol/L); vapor pressure -7.426 (log10 mmHg)
* CO[Si](C)(CCl)OC: MP -63.9 °C; bp 140.3 °C; vapor pressure 0.776 (log10 mmHg)
* CCCn1c(=O)c(C)cn2nc(N)nc12: bp 364 °C; log Kow 0.49; log S -1.617 (log10 mol/L); vapor pressure -4.523 (log10 mmHg)
* CCOC(=O)c1ccc(C#Cc2ccc3c(c2)C(C)(C)CCS3)nc1: log Kow 5.6; log S -5.671 (log10 mol/L)
* CCN(CC)c1ccc2cc3c(oc2c1)c(C#N)c(=N)n1c2ccccc2nc31: MP 263.4 °C; log Kow 5.5; log S -7.54 (log10 mol/L)
* CC1=NS(=O)(=O)c2ccccc21: MP 212.4 °C; log Kow 1.17; log S -3.194 (log10 mol/L); vapor pressure -5.888 (log10 mmHg)
* CC(C)=CCCC(C)CCOC=O (centres undefined): log Kow 3.9; log S -4.056 (log10 mol/L); vapor pressure -1.523 (log10 mmHg)
* COc1ccc([N+](=O)[O-])cc1N=NC(C(C)=O)C(=O)Nc1ccccc1OC (centres undefined): MP 262 °C; log Kow 2.55; log S -7.308 (log10 mol/L)
* CN(C)c1ccc(C(=C2C=CC(=[N+](C)C)C=C2)c2c(O)c(S(=O)(=O)[O-])cc3cc(S(=O)(=O)[O-])ccc23)cc1.[Na+]: MP 323.1 °C; log Kow 0.595
* O=S(=O)([O-])CCC(F)(F)C(F)(F)C(F)(F)C(F)(F)C(F)(F)C(F)(F)F.[K+]: MP 290.2 °C; log S -2.135 (log10 mol/L)
* CSC(C)=NO: vapor pressure -2.028 (log10 mmHg); log Henry constant -7.203 (log10 atm·m3/mol)
* CO[C@]1(C)CC[C@@]23C[C@@H]1C(C)(C)[C@@H]2CC[C@H]3C (stereo in doubt): log Kow 5.1; log S -4.74 (log10 mol/L); vapor pressure -2.426 (log10 mmHg)
* CCCC(=O)NC(C)C(=O)O (centres undefined): MP 92.3 °C; log Kow 0.965
* CCO[Si](CCC1CCC2OC2C1)(OCC)OCC (centres undefined): log Kow 4.55; log S -2.533 (log10 mol/L); vapor pressure -2.401 (log10 mmHg)
* Cc1ccc(C(=O)CC(=O)C(F)(F)F)cc1: log Kow 1.95; log S -2.641 (log10 mol/L); vapor pressure -2.109 (log10 mmHg)
* NCCCCCN: log Kow -0.3; vapor pressure 1.106 (log10 mmHg)
* CCOc1ccc(Nc2ccc(S(=O)(=O)N(C)C)cc2[N+](=O)[O-])cc1: log Kow 1.386; log S -4.262 (log10 mol/L)
* O=C(O)C(F)(F)C(F)(F)C(F)(F)C(F)(F)F: log S -3.342 (log10 mol/L); vapor pressure 1.31 (log10 mmHg); log Henry constant -4.83 (log10 atm·m3/mol)

Excerpt, the opening 3 entries:

| SMILES | MP (°C) | bp (°C) | log Kow | log S (log10 mol/L) | vapor pressure (log10 mmHg) | log Henry constant (log10 atm·m3/mol) | hepatic Clint (µL/min/10^6 cells) |
|---|---|---|---|---|---|---|---|
| Cc1ccc(NC(=O)Nc2ccc(Cc3ccc(NC(=O)Nc4ccc(C)cc4)cc3)cc2)cc1 | 288 | – | 3.8 | -7.713 | – | – | – |
| CN1[C@@H]2CCC[C@H]1C[C@@H](NC(=O)c1nn(C)c3ccccc13)C2 | 219 | – | 2.6 | -2.857 | – | – | 7.009 |
| CCn1c(O)c(/N=N/c2ccc(/N=N/c3cc(OCCO)c(/N=N/c4c(S(=O)(=O)[O-])cc5cc(S(=O)(=O)[O-])cc(O)c5c4O)cc3OCCO)c(S(=O)(=O)[O-])c2)c(C)c(C(N)=O)c1=O.[K+].[K+].[Na+] | 270 | – | -3.3 | – | – | – | – |

From the experimental data distributed with OPERA 2.9.